Ab-14 heavy chain CDR variants: yeast mating affinities

Values reported by Li et al. 2023, doi:10.1038/s41467-023-39022-2 (FLAb copy).

All variants were tested on one target, the spike HR2 peptide PDVDLGDISGINAS (SARS-CoV-2).

Ab-14 is the parent antibody, in scFv form: VH, then three GGGGS repeats, then VL. The light chain is unchanged in all variants.
VH: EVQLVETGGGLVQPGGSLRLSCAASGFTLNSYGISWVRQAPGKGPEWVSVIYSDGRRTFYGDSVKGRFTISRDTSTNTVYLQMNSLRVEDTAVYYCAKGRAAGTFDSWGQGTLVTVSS
VL: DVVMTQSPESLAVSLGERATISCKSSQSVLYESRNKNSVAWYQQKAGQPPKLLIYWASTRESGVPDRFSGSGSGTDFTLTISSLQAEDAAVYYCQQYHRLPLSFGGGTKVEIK

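The parent was found by panning a naive human phage display library on the peptide. These sequences belong to a second round, designed from the earlier measurements on random variants of the parent. Group labels follow the data file (Ctrl: baseline library sampled from a position-specific scoring matrix, with some repeated check sequences; Rand: our label for a block that the file lists under HC and that is probably the random mutants of the ten best first-round binders; GP: Gaussian process model; GPLM: also part of the Gaussian process libraries; HC: hill climbing; Gen: genetic algorithm; Gibbs: Gibbs sampling; a sequence that several methods proposed may carry one label only). The scFvs were displayed on barcoded MATa yeast, the peptide on MATalpha yeast. The frequency of each diploid, read from paired DNA barcodes, reflects how well the two displayed proteins bind. Read counts were normalised to the haploid input and turned into Kd by a linear fit to BCL2-family pairs of known affinity, for each replicate. There are six technical replicates.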

The parent's heavy chain CDRs are GFTLNSYGIS, VIYSDGRRTFYGDSVK, GRAAGTFDS; each variant's own CDRs replace them letter for letter.
This list holds designs with at most six substitutions.
Values are apparent Kd, the geometric mean of the replicates that gave a signal; lower means stronger binding.
"nd" means that the variant was in the library but no mating with the target was seen in any replicate; the authors take this as a sign of poor binding, and no number exists.
The authors' rule: three or more of the six replicates give a measured affinity, fewer mean a poor binder.
Of ten entries with the parent sequence, four were seen in most replicates (averages 2.2 nM to 240 nM), three in one and three in none, so single entries are noisy.
A sequence measured in both rounds can read differently, since the two assays cover different ranges.
Three control strains display no target. For all heavy chain designs, 1% of the pairings with them gave a signal, with a median of 120 nM and one signal in twenty below 7.0 nM, so weak values seen in few replicates may be background.

Variant GFSLNSYGIS / VIYSDGRRTFYGDSVK / GEAAGTFDF [GPLM_Gen] gave 1.7 nM (6 of 6 replicates). Variant GFELNSYGIS / VIYSDGRRTFYQDQVK / GRTAGTFDS [GP_Gibbs] showed 42 nM (2 of 6 replicates). Variant GFTLESYGIS / VIYADGRRTFYGDSVK / GQAAGTFDS [GPLM_Gen] gave 380 pM (6 of 6 replicates). Variant GFFLNSYCIS / VIYSDGRNTFYGDSVK / GRAAGWFNS [Rand] gave nd (0 of 6 replicates). Variant GFTLDSYGIS / VIYSDGRRTFYGDSVK / GRAAGTFTL [GPLM_HC] showed nd (0 of 6 replicates). With GFTLNSYGIS / VIYSIGRMTFYDDSVK / GQLANTFDS [Rand] the result was nd (0 of 6 replicates). Variant GFTLNDYGIS / VIYSDGRRTFYMDSVK / GRVAGTFWS [GP_HC] showed nd (0 of 6 replicates).

Variant GFTLNSYGIS / VIYSDGRRTFYGDPVK / GKTAGTFDT [GP_Gibbs] gave 64 nM (4 of 6 replicates). With GVDLNQYGIS / VIYSDGRRTFYGDSVK / GRAAGTFDS [Ctrl] the result was 1.5 nM (6 of 6 replicates). For GFTLNSYGDS / VVYSDERRTFYSDPVK / GRAGGTFDS [Rand], the assay gave nd (0 of 6 replicates). With GFTLNQYGIS / VIYSDGRRTSYGDQVK / GIAAGTFDS [Ctrl] the result was 11 nM (6 of 6 replicates). Variant GFTLNDYGIS / VIYSDGRRTFYGDSVK / NRAALTFIS [Rand] gave nd (0 of 6 replicates). For GFGLSSYGIS / VIYSDGRRTFYGDQVK / GRAAGTFDS [Ctrl], the assay gave nd (0 of 6 replicates). Variant GFPLNEYGIS / VIYSDGRRTFYGDSVK / GRNAGTFDS [GPLM_Gen] showed 6.6 nM (6 of 6 replicates).

Variant GFGLNSYGIS / VIYSDGRRTFYADSVK / GHAAGTFDT [GP_Gibbs] gave 11 nM (6 of 6 replicates). With GFTLNSYGIS / VIYSDGRRTQYHDSVK / GGAAVTADL [Ctrl] the result was nd (0 of 6 replicates). With GFTINSYGIS / VIYSDGRRTFYSDSVK / GRAAGTFDS [GPLM_HC] the result was 79 nM (6 of 6 replicates). Variant GFSLNEYGIS / VIYSDGRRTFYGDSVK / GNAAGTFDR [GP_HC] showed 880 pM (6 of 6 replicates). Variant GFSLNQYGIS / VIYSDGRRTFYSDSVK / GNAAGTFDS [GPLM_HC] showed 3.3 nM (3 of 6 replicates). With GFHLNSYGIS / VIYSDGRRTFYIDSVK / GKAAGTFDS [GPLM_Gibbs] the result was 16 nM (1 of 6 replicates). With GFSLNSYGIS / VIYSDGRRTFYIDSVK / GRNAGTFDS [GP_Gen] the result was 14 nM (6 of 6 replicates).

For GFSLNEYGIS / VIYSDGRRTFYSDSVK / GKAAGTFDT [GP_Gibbs], the assay gave 1.4 nM (6 of 6 replicates). With GFTLNAYGIS / VIYSDGRRTFYSDSVK / GEAAGTFDK [GP_HC] the result was 3.2 nM (5 of 6 replicates). For GFTLNEYGIS / VIYSDGIRTFYGDSVK / GRLAGTFDS [GPLM_HC], the assay gave 2.4 nM (6 of 6 replicates). Variant GFTLNSYGIS / VIYSDGRRTFYSDSVK / GRAPGTFDD [Ctrl] showed nd (0 of 6 replicates). With GFSLNNYGIS / VIYSDGRRTFYGDSVK / GRTAGTFWS [GPLM_Gen] the result was nd (0 of 6 replicates). With GFTLNSYGIS / VIYSDGRRTFYSDSVK / GRAGGTYDS [Rand] the result was 37 nM (1 of 6 replicates). With GFHLNSYGIS / VIYSDGRRTFYADSVK / GREAGTFDS [GPLM_Gibbs] the result was 1.1 nM (6 of 6 replicates).

Variant GFTLNSYGIS / VIYSDGRRTEYGDSVK / GKAAGTFDG [Ctrl] gave nd (0 of 6 replicates). Variant GFTLNSYGIS / VIYSDGERTFYGDSVK / GYAAGTFDS [Ctrl] gave 2.1 nM (6 of 6 replicates). Variant GFHLNSYGIS / VIYSDGRRTFYQDSVK / GNAAGTFDS [GPLM_Gibbs] gave 6.9 nM (1 of 6 replicates). Variant GFDLNSYGIS / VIYSDGRRTFYDDSVK / GRVAGTFDS [GPLM_Gen] gave 1.4 nM (6 of 6 replicates). For GFNLNSYGIS / VIYSDGRYTFYDDSVK / CRAAGTFDS [Ctrl], the assay gave nd (0 of 6 replicates). With GFSLNEYGIS / VIYSDGWRTFYSDSVK / GRTAGTFDS [GP_Gibbs] the result was 7.5 nM (6 of 6 replicates). For GFTLNSYGIS / VIYSDGRRTFYGDSCK / GRAAGINDS [Ctrl], the assay gave nd (0 of 6 replicates).

With GFTLNSYGIS / VIYSDGRRTAYGDSVK / GRAHGTFDS [Ctrl] the result was nd (0 of 6 replicates). Variant GFTLNSYGIS / VIYSDGRRTFYADSVK / GKEAGTFDT [GPLM_Gibbs] showed 930 pM (6 of 6 replicates). For GETLNEYGIS / VIYSDGRRTFYGDSVK / GTAAGTFDS [Ctrl], the assay gave 75 nM (4 of 6 replicates). For GFTLNNYGIS / VIYSDGRRTFYGDEVK / GRAAGTFDS [Ctrl], the assay gave nd (0 of 6 replicates). With GFTLNDYGIS / VIYADGRRTFYTDSVK / GRAAGTFVS [Ctrl] the result was 99 nM (3 of 6 replicates). For GFTLNSYGIS / VDYSDGRRTQYIDSVK / GHAIATFDS [Ctrl], the assay gave nd (0 of 6 replicates). Variant GFSLNSYGIS / VIYSDGRRTFYADKVK / GRTAGTFDS [GPLM_Gen] showed 10 nM (3 of 6 replicates).

Variant GFTLNSYGIS / VIYSDGRRTFYSDSVK / GADAGTFDS [GP_HC] gave 3.3 nM (5 of 6 replicates). Variant GFTLNSYGIS / VIYSDVRRTWYGDSVK / GRPAGTFDS [Ctrl] showed nd (0 of 6 replicates). With GFTLNEYGIS / VIYSDGRRTFYIDSVK / GRAGGTFDS [GP_HC] the result was 10 nM (5 of 6 replicates). Variant GFTLNSYGIS / VIYADGRRTFYGDSVK / GRIAGTFDK [Ctrl] showed 1.3 nM (6 of 6 replicates). Variant SFELNMYGIS / VIYSDGRRTFYGDSVK / GQTAGTFDS [GP_Gibbs] gave 25 nM (3 of 6 replicates). With GFTLNSYGIS / VIYSDGRRTFYGDSVK / GRWAGDFDS [Ctrl] the result was 470 nM (1 of 6 replicates). For GFDLNSYGIS / VIYSDGMRTFYSDSVK / GRTAGTFDS [GP_Gen], the assay gave 680 pM (6 of 6 replicates).